The results in this text go back to patent US6025333A, “Treatment of CNS tumors with metalloprotease inhibitors” (Erziehungsdirektion of the Canton Zurich, priority 1995, dated 2000).

The test system of the experiment is C6 cells. Kind of experiment: C6 cell spreading on PLYS or CNS myelin with protease inhibitors. The experiment is classed as cell-based, rat. Conditions: inhibitor 3.0 mM. The procedure: Rat C6, mouse NIH 3T3 and B16 cells were cultured in Dulbecco's modified Eagle's medium (DMEM) supplemented with 10% fetal calf serum (FCS), usually to maximally 70-80% confluency. Cells were harvested with a short trypsin treatment (0.1% in Ca^2+ /Mg^2+ -free Hank's medium for 90 seconds) stopped by addition of FCS in excess, collected by centrifugation. Cells were resuspended in either DMEM/FCS or defined serum-free medium (MEM) and used for experiments. Dissociated rat CNS glial cells were prepared starting from optic nerves of 6-7 days old Lewis rats as described in Section 6.1.1, supra and plated into poly-D-lysine (PLYS) coated wells (100 mm^2, 100 μl medium) at a density of 20,000 cells per well. The culture medium was an enriched L15 medium with 5% rat serum, penicillin and streptomycin. C6, 3T3 and B16 cells were added to 2 day old cultures at a concentration of 30,000 cells per well, incubated for two hours and fixed with warm 4% formalin in phosphate buffer. Inhibitory oligodendrocytes were identified by double labelling using the specific antibodies O1 and O4 (see Section 6.1.3, supra).
Myelin from rat spinal cord (CNS) or sciatic nerve (PNS) purified on a discontinuous sucrose gradient as described in Section 6.1.5., was dried overnight onto PLYS coated wells (20 μg protein/well of 100 mm^2 surface). Unbound membranes were removed by three washes with Ca^2+ /Mg^2+ -free Hank's solution. Myelin coated wells were immediately used in substrate testing assays by the addition of 9,000 cells (C6, 3T3, or B16) per cm^2. […] Experiments were scored at different time points using a phase contrast microscope equipped with a photocamera. Quantifications were done using a surface integration program; three arbitrary fields were photographed for each well at a magnitude of 80×, at least 25 cells per picture were measured. […] Results are expressed as μ^2 of projected cell surface, or as degree, which was calculated by subtracting from the projected surface value of a spreading cell, the surface value of a completely spheric cell.

`NCCCCCC(=O)O` [6-amino-capronate]: under “150 minutes”, the “Spreading on: PLYS (% of control on PLYS)” value was 93 % of control on PLYS. The “Spreading on: CNS (% of control on PLYS)” value (CNS myelin, 150 minutes) is 100 % of control on PLYS. Besides, the “Inhibition on CNS (%)” value (PLYS value minus CNS myelin value) came to 0%.
